# Literature values, collected in patent US20240335383A1, “NANOPARTICULATE FORMULATION” (NewImmune II, LLC, priority 2021, published 2024).
# What was measured:
# [1] = cited from earlier work
# [2] = human, in vivo, sc; cited from earlier work
# [3] = cited from earlier work; remark: listed apart in the source
substance,measurement,setting,value
"IL-2: cytokine interleukin-2; approved in recombinant form as aldesleukin, sold as Proleukin",in vivo half-life,[1],< 10 min
same,systemic exposure,[2],minimal systemic exposure
same,dose with hepatic abnormalities (increases in aspartate aminotransferase and bilirubin),"[3]; rat, in vivo, sc",0.3 mg/kg/day
same,doses with slight decreases in red blood cell counts (including hematocrit and hemoglobin),"[3]; rat, in vivo, sc",≥ 0.1 mg/kg/day
same,time to reversal of most clinical and histopathologic findings after termination of treatment,"[3]; rat, in vivo, sc",≤ 4 weeks
same,white blood cell counts,"[3]; rat, in vivo, sc",increased in a dose-dependent manner
same,"doses not tolerated, resulting in death or moribund termination by Day 7","[3]; rats, subcutaneous",≥ 1 mg/kg/day
